pIC50: −log10 of the molar value. Read-outs that look alike come from different tables or passages of the source. Some compounds may have been tested in ways that are not shown here.
Key:
[1] = biological target: Photinus pyralis (firefly) luciferase (Photinus pyralis, UniProt P08659); experiment: Luciferase counter-screen assay; format: biochemical; settings: mean ± standard deviation from three experiments
human CYP1A2 = human CYP1A2 (Homo sapiens, UniProt P05177); settings: mean ± standard deviation from three experiments
human CYP2C19 = human CYP2C19 (Homo sapiens, UniProt P33261); settings: mean ± standard deviation from three experiments; for pIC50: read-out: CYP2C19 IC50 (half-maximal inhibitory concentration)
human CYP2D6 = human CYP2D6 (Homo sapiens, UniProt P10635); settings: mean ± standard deviation from three experiments; for pIC50: read-out: CYP2D6 IC50 (half-maximal inhibitory concentration)
human CYP2C9 = human CYP2C9 (Homo sapiens, UniProt P11712); settings: mean ± standard deviation from three experiments; for pIC50: read-out: CYP2C9 IC50 (half-maximal inhibitory concentration)
CYP3A4 = CYP3A4 (Homo sapiens, UniProt P08684); settings: mean ± standard deviation from three experiments; negative = inhibition, positive = activation

Chains of the proteins cited; added tags and fusions are not shown.
UniProt P08659, whole entry: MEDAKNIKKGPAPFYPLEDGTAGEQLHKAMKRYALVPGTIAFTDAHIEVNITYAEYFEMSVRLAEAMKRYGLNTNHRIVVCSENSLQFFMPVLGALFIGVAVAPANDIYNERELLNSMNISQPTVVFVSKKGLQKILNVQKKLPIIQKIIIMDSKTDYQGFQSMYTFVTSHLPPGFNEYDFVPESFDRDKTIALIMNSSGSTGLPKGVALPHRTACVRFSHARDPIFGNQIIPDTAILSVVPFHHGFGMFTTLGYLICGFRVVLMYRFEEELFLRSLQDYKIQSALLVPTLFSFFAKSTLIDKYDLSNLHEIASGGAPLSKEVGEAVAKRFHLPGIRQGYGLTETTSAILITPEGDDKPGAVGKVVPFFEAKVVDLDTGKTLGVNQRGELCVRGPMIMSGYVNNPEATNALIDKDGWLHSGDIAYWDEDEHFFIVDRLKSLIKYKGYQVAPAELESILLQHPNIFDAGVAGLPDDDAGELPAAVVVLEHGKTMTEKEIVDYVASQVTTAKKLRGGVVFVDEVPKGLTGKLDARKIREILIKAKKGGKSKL
UniProt P05177, whole entry: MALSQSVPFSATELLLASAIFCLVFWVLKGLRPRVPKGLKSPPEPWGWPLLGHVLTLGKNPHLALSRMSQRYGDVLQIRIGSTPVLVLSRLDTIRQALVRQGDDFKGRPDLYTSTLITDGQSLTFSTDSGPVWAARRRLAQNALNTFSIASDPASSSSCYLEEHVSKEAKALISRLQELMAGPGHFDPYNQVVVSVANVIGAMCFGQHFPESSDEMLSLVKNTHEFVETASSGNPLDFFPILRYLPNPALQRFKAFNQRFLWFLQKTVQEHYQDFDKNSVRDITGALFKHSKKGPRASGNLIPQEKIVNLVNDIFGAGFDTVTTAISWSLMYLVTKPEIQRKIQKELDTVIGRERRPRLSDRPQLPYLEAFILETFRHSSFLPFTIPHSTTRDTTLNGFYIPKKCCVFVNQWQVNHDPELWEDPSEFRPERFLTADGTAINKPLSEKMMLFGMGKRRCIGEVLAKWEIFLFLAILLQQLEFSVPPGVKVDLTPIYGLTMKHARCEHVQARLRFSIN
UniProt P33261, whole entry: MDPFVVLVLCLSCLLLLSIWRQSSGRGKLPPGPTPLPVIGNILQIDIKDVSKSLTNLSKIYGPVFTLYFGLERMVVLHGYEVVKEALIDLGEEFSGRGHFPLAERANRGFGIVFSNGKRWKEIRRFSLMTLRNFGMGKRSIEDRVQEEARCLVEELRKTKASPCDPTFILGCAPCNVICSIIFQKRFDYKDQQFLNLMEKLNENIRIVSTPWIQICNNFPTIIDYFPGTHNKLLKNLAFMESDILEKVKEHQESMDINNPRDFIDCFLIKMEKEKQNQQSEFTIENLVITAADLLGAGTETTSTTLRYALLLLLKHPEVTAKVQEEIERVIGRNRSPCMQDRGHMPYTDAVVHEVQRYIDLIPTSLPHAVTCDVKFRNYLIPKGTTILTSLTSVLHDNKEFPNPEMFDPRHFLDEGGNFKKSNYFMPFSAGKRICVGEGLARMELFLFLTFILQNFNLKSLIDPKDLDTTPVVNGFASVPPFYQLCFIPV
UniProt P10635, whole entry: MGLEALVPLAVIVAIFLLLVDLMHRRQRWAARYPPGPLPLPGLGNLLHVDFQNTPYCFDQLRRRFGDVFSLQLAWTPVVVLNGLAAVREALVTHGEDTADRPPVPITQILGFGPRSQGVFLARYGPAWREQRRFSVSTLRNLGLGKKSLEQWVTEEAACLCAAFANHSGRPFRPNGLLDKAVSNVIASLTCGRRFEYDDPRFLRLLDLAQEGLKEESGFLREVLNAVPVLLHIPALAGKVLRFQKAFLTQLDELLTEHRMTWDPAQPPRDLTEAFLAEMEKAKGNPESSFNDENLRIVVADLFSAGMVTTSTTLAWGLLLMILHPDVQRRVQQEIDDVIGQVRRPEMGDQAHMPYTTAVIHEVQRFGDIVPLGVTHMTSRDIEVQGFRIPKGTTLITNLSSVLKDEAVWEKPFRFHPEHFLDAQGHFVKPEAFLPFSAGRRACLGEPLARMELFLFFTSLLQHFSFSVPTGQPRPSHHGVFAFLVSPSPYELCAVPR
UniProt P11712, whole entry: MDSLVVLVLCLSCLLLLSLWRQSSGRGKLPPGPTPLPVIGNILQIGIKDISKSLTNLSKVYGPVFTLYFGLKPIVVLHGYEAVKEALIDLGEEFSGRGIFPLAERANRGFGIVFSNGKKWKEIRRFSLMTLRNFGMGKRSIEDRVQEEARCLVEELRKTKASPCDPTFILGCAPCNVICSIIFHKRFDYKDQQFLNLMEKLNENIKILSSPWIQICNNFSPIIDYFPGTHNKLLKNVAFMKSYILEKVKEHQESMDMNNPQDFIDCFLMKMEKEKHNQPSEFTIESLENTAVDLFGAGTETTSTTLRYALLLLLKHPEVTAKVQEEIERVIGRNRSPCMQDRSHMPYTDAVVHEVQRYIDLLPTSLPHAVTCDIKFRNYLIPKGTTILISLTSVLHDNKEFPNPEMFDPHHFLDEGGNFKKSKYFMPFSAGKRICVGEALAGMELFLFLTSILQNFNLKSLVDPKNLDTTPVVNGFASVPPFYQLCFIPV
UniProt P08684, whole entry: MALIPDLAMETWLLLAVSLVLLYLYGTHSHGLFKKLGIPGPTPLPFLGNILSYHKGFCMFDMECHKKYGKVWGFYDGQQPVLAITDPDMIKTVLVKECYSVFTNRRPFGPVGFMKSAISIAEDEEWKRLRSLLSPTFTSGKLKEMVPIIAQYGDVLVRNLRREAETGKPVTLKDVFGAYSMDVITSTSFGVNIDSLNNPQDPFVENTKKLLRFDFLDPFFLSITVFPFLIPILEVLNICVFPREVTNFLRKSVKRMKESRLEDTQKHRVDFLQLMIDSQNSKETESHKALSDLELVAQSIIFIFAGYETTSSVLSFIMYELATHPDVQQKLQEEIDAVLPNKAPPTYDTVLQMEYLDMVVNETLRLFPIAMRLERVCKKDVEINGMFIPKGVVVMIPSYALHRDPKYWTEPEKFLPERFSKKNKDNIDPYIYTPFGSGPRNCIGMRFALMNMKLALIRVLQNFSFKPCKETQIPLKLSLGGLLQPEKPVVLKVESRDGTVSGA

| Structure (SMILES) | Luciferase IC50 (half-maximal inhibitory concentration) ([1]; Inactive = no activity call) | CYP1A2 IC50 (half-maximal inhibitory concentration) (human CYP1A2; Inactive = no activity call) | pIC50 (human CYP2C19; Inactive = no activity call) | pIC50 (human CYP2D6; Inactive = no activity call) | pIC50 (human CYP2C9; Inactive = no activity call) | Luciferase IC50 (half-maximal inhibitory concentration) [1] | CYP1A2 IC50 (half-maximal inhibitory concentration) (human CYP1A2; qHTS) | CYP2C19 Efficacy (in parenthesis) (human CYP2C19; negative = inhibition) | pIC50 (human CYP2C19; qHTS) | CYP2D6 Efficacy (in parenthesis) (human CYP2D6; negative = inhibition) | pIC50 (human CYP2D6; qHTS) | CYP3A4 Efficacy (in parenthesis) (CYP3A4) | CYP2C9 Efficacy (in parenthesis) (human CYP2C9; negative = inhibition) | pIC50 (human CYP2C9; qHTS) |
| --- | --- | --- | --- | --- | --- | --- | --- | --- | --- | --- | --- | --- | --- | --- |
| CCC(=O)N(c1ccccc1)C1(COC)CCN(CCn2nnn(CC)c2=O)CC1 | Inactive | Inactive | 4.03 | 4.36 | 4.30 |  |  |  |  |  |  |  |  |  |
| CCC(=O)N(c1ccccc1)C1(COC)CCN(CCc2cccs2)CC1 |  |  |  |  |  | Inactive | Inactive | -98 ± 8% | 4.40 | -107 ± 3% | 5.83 | -74 ± 8% | -51 ± 11% | 4.15 |

— publication PMC12155096 (International Journal of Molecular Sciences, 2025)
